Experiments:
[1] = target: Vascular Endothelial Growth Factor (VEGF), receptor binding domain, VEGF_(8–109) (Homo sapiens); assay: ITC; VP-ITC; Fab (100–220 µM) titrated into antigen (10–22 µM); phosphate-buffered saline pH 7.4; 30°C
[2] = target: Vascular Endothelial Growth Factor (VEGF), receptor binding domain, VEGF_(8–109) (Homo sapiens); assay: ITC; VP-ITC; Fab titrated into antigen; 10 mM Tris-HCl pH 7.5; 30°C
[3] = target: Vascular Endothelial Growth Factor (VEGF), receptor binding domain, VEGF_(8–109) (Homo sapiens); assay: SPR; BIAcore 3000; VEGF_(8–109) or HER2 ECD immobilised on CM5 chips; serial dilutions of Fab in PBS with 0.05% Tween20 injected at 30 µl/min; 30°C; 1:1 Langmuir fit; KD from the ratio of kon and koff
[4] = target: Vascular Endothelial Growth Factor (VEGF), receptor binding domain, VEGF_(8–109); assay: SPR; details: 30°C; Fab over immobilized antigen

dH (ΔHPBS) [1] [kJ/mol] | dH corrected for protonation (ΔH^CORR) [1] [kJ/mol] | dH (ΔH (Tris)) [2] [kJ/mol] | Kd [3] [nM] | kon [4] | Substance
-29.7 | -29.7 | -33.5 | 2 |  | bH1-44 Fab (affinity-improved variant of bH1)
 |  |  |  | 35 10^4 M-1s-1 | bH1-44 Fab (affinity-improved variant of bH1) HC:R50A; HC:R58A

Reference: publication PMC3081289
